Values quoted from earlier work as cited in patent US4783530A, “8-arylxanthines” (priority 1987, dated 1988).

Test system: adenosine receptors
Details: cited from earlier work

| SMILES | adenosine antagonism (in words) | degree of selectivity (in words) |
| --- | --- | --- |
| Cn1c(=O)c2[nH]cnc2n(C)c1=O [aminophylline] | weak nonselective adenosine antagonists |  |
| Cn1c(=O)c2[nH]cnc2n(C)c1=O [theophylline] |  | do not show any remarkable degree of selectivity |
